Earlier results as cited in patent US20060088591A1, “Tablets from a poorly compressible substance” (priority 2004, published 2006).

Conditions: under normal conditions

## Vitamin E succinate polyethylene glycol 1000 [Vitamin E TPGS]
  stability to hydrolysis: very stable and does not hydrolyze
